Experimental data: BindingDB's records for doi:10.1007/bf02246453 (University of Turku, 1996)

By UniProt entry, the sequences of proteins in these tests, tags left out.
UniProt P14842, whole entry: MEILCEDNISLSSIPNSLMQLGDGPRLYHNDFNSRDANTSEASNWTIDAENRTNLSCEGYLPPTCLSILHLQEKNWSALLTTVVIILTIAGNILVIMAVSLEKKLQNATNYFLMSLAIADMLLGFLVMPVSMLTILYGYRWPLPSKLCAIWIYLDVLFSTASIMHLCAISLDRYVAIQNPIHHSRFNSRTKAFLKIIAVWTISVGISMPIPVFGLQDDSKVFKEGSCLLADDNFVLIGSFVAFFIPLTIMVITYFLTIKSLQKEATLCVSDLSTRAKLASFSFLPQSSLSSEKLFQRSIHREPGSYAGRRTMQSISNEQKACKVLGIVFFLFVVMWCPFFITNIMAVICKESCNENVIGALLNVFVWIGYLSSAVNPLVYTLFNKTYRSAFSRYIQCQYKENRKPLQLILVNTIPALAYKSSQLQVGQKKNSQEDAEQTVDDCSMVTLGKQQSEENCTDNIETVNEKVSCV

Target: 5-hydroxytryptamine receptor 2A (Rattus norvegicus, UniProt P14842)

- Ki: 5 nM
Structure (SMILES): CNCCC=C1c2ccccc2CCc2ccccc21 [NORTRIPTYLINE]
